Measured affinities in a library of Ab-95 light chain variants

Reference: Engelhart et al. 2022, doi:10.1038/s41597-022-01779-4. File: FLAb, binding data.

All variants were tested on one target, the spike HR2 peptide PDVDLGDISGINAS (SARS-CoV-2).

Parent: Ab-95, a human scFv built as VH, the linker GGGGSGGGGSGGGGS, VL. Only the CDRs of the light chain vary.
VH: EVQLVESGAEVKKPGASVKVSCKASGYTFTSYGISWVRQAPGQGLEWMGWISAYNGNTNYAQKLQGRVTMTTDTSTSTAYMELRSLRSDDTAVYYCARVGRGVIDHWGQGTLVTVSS
VL: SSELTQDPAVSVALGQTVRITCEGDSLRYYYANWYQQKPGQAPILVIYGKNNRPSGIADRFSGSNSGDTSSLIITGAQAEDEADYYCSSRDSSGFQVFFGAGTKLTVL

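Phage display of a naive human antibody library on the peptide gave the parent. AAYL52 was designed without a model: most single CDR substitutions and a random sample of double and triple ones. The scFvs were displayed on barcoded MATa yeast, the peptide on MATalpha yeast. After mating in shaken culture at 30 °C for 16 h, diploids were selected and their barcode pairs sequenced. A regression on co-assayed BCL2-family reference pairs converts the normalised counts of each replicate to an apparent Kd. Each pool was mated in three replicate cultures.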

Variants are written as CDR1, CDR2 and CDR3 of the light chain (limits as in the source). Parent: EGDSLRYYYAN, GKNNRPS, SSRDSSGFQVF.
Scale: log10 of Kd in nM, estimated from mating counts; low values are strong binders.
A pair that was not seen in that replicate is written "nd"; this usually means weak binding, but a binder can also be missed.
Background: pairings of library AAYL52 with three empty control strains gave a value in 28% of cases (median 3.91, 5th percentile 2.90). Values in that range, when seen in few replicates, are hard to tell from nonspecific mating. The control count says in how many pairings with the empty strains this scFv gave a signal, with their mean in brackets.
For reference, the parent read 2.31 as the reference entry and 2.25 as a member of this library.

{"CDR-L1": "EGDSLRYYYAL", "CDR-L2": "GKNNSPS", "CDR-L3": "SSRDSAGFQVF", "replicates, log10 nM": "nd nd nd", "control signals": "0/9"}
{"CDR-L1": "EGRSLRYYYAN", "CDR-L2": "GKTNRPS", "CDR-L3": "SSRDSSGFQTF", "replicates, log10 nM": "3.93 nd nd", "control signals": "1/9 (3.79)"}
{"CDR-L1": "EGDSLRYSYAN", "CDR-L2": "GKKNRRS", "CDR-L3": "SSRDSSGFQVF", "replicates, log10 nM": "4.36 3.96 4.16", "control signals": "4/9 (4.31)"}
{"CDR-L1": "EGDSLEYYYAN", "CDR-L2": "GKINRPS", "CDR-L3": "SSADSSGFQVF", "replicates, log10 nM": "nd nd nd", "control signals": "3/9 (3.21)"}
{"CDR-L1": "EGDSLRYYYAN", "CDR-L2": "GKNNRQS", "CDR-L3": "SSRDSSTFQVF", "replicates, log10 nM": "2.92 2.73 nd", "control signals": "3/9 (4.03)"}
{"CDR-L1": "RGDSLRYYYAN", "CDR-L2": "GKNNRPS", "CDR-L3": "SSRCSSGFQVQ", "replicates, log10 nM": "3.85 nd 4.16", "control signals": "5/9 (4.27)"}
{"CDR-L1": "EGDSLRYYYAN", "CDR-L2": "GKNNRPS", "CDR-L3": "SSRDGSGFQTF", "replicates, log10 nM": "2.25 2.63 2.70", "control signals": "3/9 (4.02)"}
{"CDR-L1": "EGDSLRYYYAN", "CDR-L2": "GKNNRPS", "CDR-L3": "SSYDSSMCQVF", "replicates, log10 nM": "2.68 4.49 2.62", "control signals": "1/9 (2.70)"}
{"CDR-L1": "PGDSLRYYYAN", "CDR-L2": "GSGNRPS", "CDR-L3": "SSRDSSGFQVF", "replicates, log10 nM": "3.81 2.63 2.43", "control signals": "5/9 (4.05)"}
{"CDR-L1": "EGDSYRYYYAN", "CDR-L2": "GKNNRHS", "CDR-L3": "SSRDSSGFQVF", "replicates, log10 nM": "3.31 3.65 3.79", "control signals": "2/9 (3.67)"}
{"CDR-L1": "EGDHLRYYYAN", "CDR-L2": "GKNNRPS", "CDR-L3": "SSRDSSGFQVF", "replicates, log10 nM": "nd nd nd", "control signals": "0/9"}
{"CDR-L1": "EGYSLRYYYAY", "CDR-L2": "GKNNRDS", "CDR-L3": "SSRDSSGFQVF", "replicates, log10 nM": "4.08 3.84 3.10", "control signals": "3/9 (4.74)"}
{"CDR-L1": "EGDHLRYYYAN", "CDR-L2": "GKNNRPS", "CDR-L3": "SSRMSSGFQVF", "replicates, log10 nM": "3.21 2.94 nd", "control signals": "4/9 (4.40)"}
{"CDR-L1": "EGDSLRFYYAN", "CDR-L2": "GENNRPS", "CDR-L3": "SSRDSWGFQVF", "replicates, log10 nM": "3.00 3.00 2.04", "control signals": "2/9 (3.93)"}
{"CDR-L1": "EGDLLRYYYAN", "CDR-L2": "GKNNRPS", "CDR-L3": "SSRDSSGYQVG", "replicates, log10 nM": "3.67 4.95 nd", "control signals": "1/9 (2.88)"}
{"CDR-L1": "EGDSLRYTYAN", "CDR-L2": "GKNNRPS", "CDR-L3": "DSRDSSGFQVF", "replicates, log10 nM": "nd nd nd", "control signals": "4/9 (3.79)"}
{"CDR-L1": "SGDSLRYHYAN", "CDR-L2": "GKNNRPS", "CDR-L3": "SSADSSGFQVF", "replicates, log10 nM": "nd nd 2.83", "control signals": "3/9 (3.47)"}
{"CDR-L1": "EGDSLRYYYAN", "CDR-L2": "GKNNNPS", "CDR-L3": "STRDSSGFQVT", "replicates, log10 nM": "nd nd nd", "control signals": "2/9 (4.82)"}
{"CDR-L1": "EGDSLRYYYAI", "CDR-L2": "GKNYRPS", "CDR-L3": "SSRDSSRFQVF", "replicates, log10 nM": "nd 2.93 nd", "control signals": "2/9 (4.13)"}
{"CDR-L1": "EGDSLRYYYAN", "CDR-L2": "GKNNRPS", "CDR-L3": "ASRDQSGFQVP", "replicates, log10 nM": "2.27 1.88 2.01", "control signals": "2/9 (3.76)"}
{"CDR-L1": "EGDSLRYYYYN", "CDR-L2": "GKNNRPS", "CDR-L3": "SSRDVSGFQVF", "replicates, log10 nM": "nd nd nd", "control signals": "2/9 (3.76)"}
{"CDR-L1": "EGDSLRYYYAN", "CDR-L2": "GKNNRPS", "CDR-L3": "SSMDSSGFQVF", "replicates, log10 nM": "2.07 2.41 1.85", "control signals": "3/9 (3.92)"}
{"CDR-L1": "EGISLRYYYAN", "CDR-L2": "GKNNRLS", "CDR-L3": "STRDSSGFQVF", "replicates, log10 nM": "nd 3.65 nd", "control signals": "1/9 (2.79)"}
{"CDR-L1": "EGDSLRYYLAN", "CDR-L2": "GKNNRPS", "CDR-L3": "WSDDSSGFQVF", "replicates, log10 nM": "3.63 nd nd", "control signals": "1/9 (3.73)"}
{"CDR-L1": "EGDSLRPYYAN", "CDR-L2": "GKNNKPS", "CDR-L3": "SSRDVSGFQVF", "replicates, log10 nM": "3.72 3.66 4.19", "control signals": "5/9 (3.46)"}
{"CDR-L1": "EGDSLRYYCHN", "CDR-L2": "GKNNRPS", "CDR-L3": "SSRDSSLFQVF", "replicates, log10 nM": "5.05 5.07 nd", "control signals": "3/9 (4.32)"}
{"CDR-L1": "EGDSPAYYYAN", "CDR-L2": "NKNNRPS", "CDR-L3": "SSRDSSGFQVF", "replicates, log10 nM": "4.02 3.38 nd", "control signals": "3/9 (4.09)"}